Results on one compound are retold here after ChEMBL document CHEMBL3769398 (J Med Chem, 2016).

The test deals with T1, Protein deacetylase HDAC6 (Homo sapiens, UniProt Q9UBN7).
T1 sequence (Q9UBN7 whole entry): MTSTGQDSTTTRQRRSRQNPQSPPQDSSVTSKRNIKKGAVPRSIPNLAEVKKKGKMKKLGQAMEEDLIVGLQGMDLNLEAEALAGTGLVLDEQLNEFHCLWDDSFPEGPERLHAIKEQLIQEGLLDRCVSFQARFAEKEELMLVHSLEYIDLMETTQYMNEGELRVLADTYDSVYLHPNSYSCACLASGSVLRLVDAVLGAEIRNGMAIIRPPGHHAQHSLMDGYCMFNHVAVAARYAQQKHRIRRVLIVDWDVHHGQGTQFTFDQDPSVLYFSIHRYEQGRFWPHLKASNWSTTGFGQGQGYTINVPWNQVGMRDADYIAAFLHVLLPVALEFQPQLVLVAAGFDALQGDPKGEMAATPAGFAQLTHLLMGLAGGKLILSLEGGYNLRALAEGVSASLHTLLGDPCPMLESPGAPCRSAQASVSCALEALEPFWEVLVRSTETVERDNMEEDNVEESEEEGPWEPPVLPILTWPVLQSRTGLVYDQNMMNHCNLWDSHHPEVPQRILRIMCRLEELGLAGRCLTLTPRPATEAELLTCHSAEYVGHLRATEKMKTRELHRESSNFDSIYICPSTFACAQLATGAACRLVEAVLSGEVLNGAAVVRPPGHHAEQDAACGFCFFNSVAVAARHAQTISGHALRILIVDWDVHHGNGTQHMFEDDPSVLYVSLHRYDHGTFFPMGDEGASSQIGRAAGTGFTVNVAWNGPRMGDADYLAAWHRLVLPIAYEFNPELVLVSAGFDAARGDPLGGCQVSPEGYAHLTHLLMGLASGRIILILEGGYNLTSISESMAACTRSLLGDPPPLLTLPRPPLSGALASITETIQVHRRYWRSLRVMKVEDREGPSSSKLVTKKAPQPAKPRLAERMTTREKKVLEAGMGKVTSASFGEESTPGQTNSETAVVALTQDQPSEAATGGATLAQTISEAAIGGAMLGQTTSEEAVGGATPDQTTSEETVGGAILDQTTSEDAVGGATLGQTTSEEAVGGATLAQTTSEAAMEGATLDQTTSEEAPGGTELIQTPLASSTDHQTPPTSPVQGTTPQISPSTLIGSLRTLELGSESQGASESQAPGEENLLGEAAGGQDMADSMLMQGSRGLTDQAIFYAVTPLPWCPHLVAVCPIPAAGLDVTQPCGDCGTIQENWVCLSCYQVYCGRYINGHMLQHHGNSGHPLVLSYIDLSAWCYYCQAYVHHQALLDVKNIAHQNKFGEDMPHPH
The test can be described thus: Inhibition of recombinant human KDAC6 using FITC-histone 4 acetylated peptide substrate incubated for 60 mins by microfluidic chip-based assay.

The structures appear in SMILES notation.

Usually IC50 stands for the concentration that inhibits the measured activity by half. Consider `CC(C)[C@@H]1NC(=O)[C@@H]2CCCN2C(=O)[C@H]2CCCN2C(=O)C[C@@H](C(=O)NCCCC(=O)NO)NC1=O`, for which the IC50 was 5.07 µM.
